{"source": "patent US20050084524A1", "about": "“Method for potentiating activity of a chemotherapeutic drug” (ALZA Corporation, priority 1998, published 2005)", "key": {"MDA453 xenografts [1]": {"test_system": "MDA453 xenografts", "assay": "MDA453 human breast cancer xenograft, cisplatin study 8", "format": "in vivo, mice", "procedure": "Another study was performed using the MDA453 xenograft model. Immune deficient mice were inoculated with MDA453 tumor cells-as described in Example 2.\nFollowing the dosing regimen described above, the therapies were administered to the test animals. Tumor volume over the course of the experiment is shown in FIGS. 9A-9B, where the large arrowheads along the x-axis indicate administration of drug plus antibody and the smaller arrows indicate administration of antibody only.\nTwo separate HER2-overexpressing human breast cancer xenograft models were utilized: BT474 and MDA453. The BT474 or MDA453 tumors were inoculated from cultured cells in exponential growth. […] Cells were counted by hemacytometer, spun down and resuspended in media at 50 million cells per milliliter of media (5 million cells per 0.1 ml injection volume). […]\n(§1) Animals were weighed prior to inoculation of tumors and at least weekly thereafter. Tumors were measured twice weekly throughout the experiment, beginning 6-8 days after tumor inoculation. Tumor measurements were made by digital caliper in 3 dimensions and the volume recorded as one half the product of these measurements. […]\nTumor volumes, measured repeatedly throughout experiments, were used for analysis as correlated information. […] Growth rates (slope) for each treatment group within each experiment were calculated and compared in linear regression. […]"}, "BT474 xenografts [2]": {"test_system": "BT474 xenografts", "assay": "BT474 human breast cancer xenograft, doxorubicin studies 1-3", "format": "in vivo, mice", "procedure": "In study numbers 1, 2 and 3 immune-deficient mice were inoculated by subcutaneous injection into the dorsum with 5 million BT474 cells in 0.1 mL added to an equal volume of Matrigel for an inoculation volume of 0.2 mL. The inoculated mice were divided into six treatment groups of 12 mice each, prior to inoculation. Treatment was initiated when the average tumor volume was 100 mm^3, which occurred approximately 7-10 days after inoculation.\nSaline, doxorubicin and liposome-entrapped doxorubicin were administered by intravenous injection for three treatments. The anti-HER2 antibody, Herceptin, was administered by intraperitoneal injection twice weekly for a total of six treatments. The animals were monitored daily and the tumors were measured in three dimensions twice weekly over the study period.\n(§2) 1. BT474 and MDA453 Cells: The BT474 and MDA453 tumors were each inoculated from cultured cells in exponential growth. Cells were trypsinized, collected and washed in media. Cells were counted by hemacytometer, spun down and resuspended in media at 50 million cells per milliliter of media. Resuspended cells were chilled, then mixed with an equal volume of Matrigel. Cells (5 million cells per 0.2 ml injection volume, continuously mixed) were drawn into individual, chilled syringes for subcutaneous injection into the dorsum of each animal.\nImmune deficient mice were used in all experiments. Study numbers 1, 2, 3 and 4 were conducted in homozygous nude female mice. Study number 5 was conducted in homozygous ICR scid female mice. All mice were obtained at the age of four weeks and acclimated for a minimum of 1 week prior to tumor inoculation. All mice were ear tagged for individual identification during acclimation. For each study, 75 mice were inoculated with tumors to supply 72 study animals at treatment.\nas §1, with “one-half” for “one half”, “measurements. Any animal observed to have 15% or greater weight loss from the initial starting weight was immediately euthanized by inhalation of 100% carbon dioxide. Any animal observed to have greater than 4,000 mm^3 tumor volume was immediately euthanized by inhalation of 100% carbon dioxide.” for “measurements.”\n(§3) Tumor volumes, measured repeatedly throughout the experiments, were used for analysis as correlated information. […] All tumor volumes were log transformed, with z=log10(y+1) where y is the calculated tumor volume, thus when y=0, z is meaningful and z=0. Log growth rates for transformed values, z, for each treatment group within each experiment were calculated and compared in linear regression. […]"}, "B585 xenografts": {"test_system": "B585 xenografts", "assay": "B585 primary human breast cancer xenograft, doxorubicin study 5", "format": "in vivo, mice", "procedure": "The primary human breast cancer B585 express high levels of HER2. In Study No. 5, mice were inoculated with passaged B585 tumor tissue.\n(§4) The animals were dosed as described above, with the saline and chemotherapeutic agent administered intravenously once per week and the biological agent administered intraperitoneally twice per week.\n2. B585 Human Cells: The B585 primary human breast xenografts were inoculated from tumor tissue harvested from tumor bearing animals. Tumors were minced with scissors and resuspended in media. Resuspended cells were chilled, then mixed with an equal volume of Matrigel. […]\nas §1, with “one-half” for “one half”\nas §3"}, "BT474 xenografts [3]": {"test_system": "BT474 xenografts", "assay": "BT474 human breast cancer xenograft, cisplatin studies 6-7", "format": "in vivo, mice", "procedure": "In Study No. 6, mice were inoculated with BT474 cells.\nThe animals were dosed as described in Example 2, with the saline and chemotherapeutic agent administered intravenously once per week and the biological agent administered intraperitoneally twice per week.\nIn Study No. 7, the dosage of the antibody was reduced to better differentiate between the treatment regimens.\nTwo separate HER2-overexpressing human breast cancer xenograft models were utilized: BT474 and MDA453. The BT474 or MDA453 tumors were inoculated from cultured cells in exponential growth. Cells were trypsinized, collected and washed in media. Cells were counted by hemacytometer, spun down and resuspended in media at 50 million cells per milliliter of media (5 million cells per 0.1 ml injection volume). Resuspended cells were chilled, then mixed in an equal volume of Matrigel. Cells (0.2 ml, continuously mixed) were drawn into individual, chilled syringes for subcutaneous injection into the dorsum of each animal.\nImmune-deficient female mice (NCR.nu/nu, Taconic Farms, Germantown, N.Y.) were obtained from the vendor and acclimated for at least 7 days prior to initiation of experiments. Animals were housed in microisolator caging (Thoren Caging, Hazelton, Pa.) with ad lib gamma irradiated rodent food and autoclaved, acidified water. Lights were set for 12:12 light: dark cycle. All animals received a 0.72 mg estradiol 17β sustained release pellet (Innovative Research of America, Sarasota, Fla.) by subcutaneous injection 24 hours prior to tumor inoculation. Animals were randomized into treatment groups prior to inoculation of tumors.\nAnimals were weighed prior to inoculation of tumors and at least weekly thereafter. Tumors were measured twice weekly throughout the experiment, beginning 6-8 days after tumor inoculation. Tumor measurements were made by digital caliper in 3 dimensions and the volume recorded as one half the product of these measurements. Any animal observed to have 15% or greater weight loss from the initial starting weight was immediately euthanized. Any animal observed to have greater than 4,000 mm^3 tumor volume was immediately euthanized.\nAnimals were divided into 6 treatment groups (12 animals each) prior to inoculation of tumors in all experiments.\nSaline, cisplatin and PL-cisplatin were administered by intravenous injection; Herceptin was administered by intraperitoneal injection. All treatments were administered for 3 weekly cycles. Treatment was initiated when average tumor volume was 75 mm^3 (approximately 6-10 days after inoculation). Tumor sizes within each treatment group were compared to confirm similar initial size prior to initiation of treatment.\nTumor volumes, measured repeatedly throughout experiments, were used for analysis as correlated information. Since tumor growth over time after treatment was of interest, repeated measurement analysis for each treatment group was performed. Growth rates (slope) for each treatment group within each experiment were calculated and compared in linear regression. If the growth rate was positive for a certain treatment, tumors were still growing even after receiving the drug; if the growth rate is negative, tumors began to shrink after receiving the drug; if the growth rate is 0, tumors stop growing after receiving the drug. A p-value of 0.05 or less is considered significant.\nTumor size at specific times after treatment was compared between treated and control groups. Tumor growth inhibition was reported as % T/C which is the tumor size of each treated group divided by the control group, expressed as a percentage."}, "MDA453 xenografts [4]": {"test_system": "MDA453 xenografts", "assay": "MDA453 human breast cancer xenograft, doxorubicin study 4", "format": "in vivo, mice", "details": "doxorubicin HCl or liposome-entrapped 5 mg/kg iv once/week x3, anti-HER2 antibody 5 mg/kg ip twice/week x6", "procedure": "Another study, Study No. 4, was conducted using MDA453 xenografts, following the methodology set forth in Example 1.\nas §4\nas §2, with “Cells (5 million cells per 0.2 ml injection volume, continuously mixed) were drawn into individual, chilled syringes for subcutaneous injection into the dorsum of each animal.” left out\nas §1, with “one-half” for “one half”\nas §3"}, "A431 tumor": {"test_system": "A431 tumor", "assay": "A431 tumor xenograft implanted subcutaneously in nude mice, tumor volume", "format": "in vivo", "description": "In studies performed in support of the invention, a xenograft of the A431 tumor was implanted subcutaneously in nude mice. Six days after tumor implantation, the mice were randomly grouped for treatment with one of the following regimens: free doxorubicin, an anti-EGFR antibody (C225), liposomal-entrapped doxorubicin; free doxorubicin plus the anti-EGFR antibody, or liposome-entrapped doxorubicin plus the anti-EGFR antibody. The liposomes included a vesicle-forming lipid derivatized with the hydrophilic polymer polyethyleneglycol.\nThe results are shown in FIG. 1, where the tumor volume, in mm^3, is shown as a function of time following tumor implantation, in days. […] The mice treated with the combined treatments of the therapeutic agent and the biological agent fared best.\nTable 1 tabulates the size of the tumor at 40 and 60 days following tumor implantation."}, "[5]": {"details": "doses ranging from 5 mg/m^2 to 400 mg/m^2; cited from earlier work"}}, "note": "“Also recorded” adds a separate entry of the source. Marks after values point to notes of the source that are not given here.", "data": [{"substance": "Herceptin: humanized anti-p185HER2 monoclonal antibody, rhuMAb HER2 (Herceptin, Genentech)", "values": [{"measurement": "Size of treated tumors as a function of size of control tumors, % T/C, Study No. 8", "setting": "MDA453 xenografts [1]; Day 33, MDA453, cisplatin 4 mg/kg, antibody 1 mg/kg, control saline", "value": 0.1, "unit": "% T/C"}, {"measurement": "Growth rate of tumors (slope), Study No. 8 MDA453", "setting": "MDA453 xenografts [1]; cisplatin or liposome-entrapped cisplatin 4 mg/kg iv once/week x3, anti-HER2 antibody 1 mg/kg ip twice/week x6", "value": "−1.14"}, {"measurement": "Log Growth Rate, Study No. 1", "setting": "BT474 xenografts [2]; BT474, doxorubicin HCl 4 mg/kg or liposome-entrapped 3 mg/kg iv once/week x3, anti-HER2 antibody 10 mg/kg ip twice/week x6", "value": "−0.061^b"}, {"measurement": "Log Growth Rate, Study No. 3", "setting": "BT474 xenografts [2]; BT474, doxorubicin HCl or liposome-entrapped 3 mg/kg iv once/week x3, anti-HER2 antibody 1 mg/kg ip twice/week x6", "value": "−0.020^c,d"}, {"measurement": "Log Growth Rate, Study No. 2", "setting": "BT474 xenografts [2]; BT474, doxorubicin HCl or liposome-entrapped 5 mg/kg iv once/week x3, anti-HER2 antibody 3 mg/kg ip twice/week x6", "value": "−0.019^c,d,e"}, {"measurement": "tumor volume over treatment period (FIGS. 2A-2B), in words", "setting": "BT474 xenografts [2]; Study No. 1, BT474, doxorubicin 4 mg/kg, liposomal 3 mg/kg, antibody 10 mg/kg, listed as anti-HER2 antibody", "value": "decrease in tumor volume; also recorded: eliminates tumor growth"}, {"measurement": "Log Growth Rate, Study No. 5", "setting": "B585 xenografts; B585, doxorubicin HCl or liposome-entrapped 4 mg/kg iv once/week x3, anti-HER2 antibody 3 mg/kg ip twice/week x6", "value": "0.061^b,c"}, {"measurement": "tumor volume over treatment period (FIGS. 6A-6B), in words", "setting": "B585 xenografts; Study No. 5, B585, doxorubicin 4 mg/kg, liposomal 4 mg/kg, antibody 3 mg/kg", "value": "continuous tumor growth"}, {"measurement": "Size of treated tumors as a function of size of control tumors, % T/C, Study No. 6", "setting": "BT474 xenografts [3]; Day 44, BT474, cisplatin 6 mg/kg, antibody 3 mg/kg, control saline", "value": 1.9, "unit": "% T/C"}, {"measurement": "Size of treated tumors as a function of size of control tumors, % T/C, Study No. 7", "setting": "BT474 xenografts [3]; Day 49, BT474, cisplatin 4 mg/kg, antibody 0.5 mg/kg, control saline", "value": 35.5, "unit": "% T/C"}, {"measurement": "tumor volume over treatment period (FIGS. 7A-7B), in words", "setting": "BT474 xenografts [3]; Study No. 6, BT474, cisplatin 6 mg/kg, antibody 3 mg/kg", "value": "little to no tumor growth"}, {"measurement": "tumor volume over treatment period (FIG. 8), in words", "setting": "BT474 xenografts [3]; Study No. 7, BT474, cisplatin 4 mg/kg, antibody 0.5 mg/kg", "value": "continual tumor growth"}, {"measurement": "Growth rate of tumors (slope), Study No. 7 BT474", "setting": "BT474 xenografts [3]; cisplatin or liposome-entrapped cisplatin 4 mg/kg iv once/week x3, anti-HER2 antibody 0.5 mg/kg ip twice/week x6", "value": "10.78^c,d"}, {"measurement": "Growth rate of tumors (slope), Study No. 6 BT474", "setting": "BT474 xenografts [3]; cisplatin or liposome-entrapped cisplatin 6 mg/kg iv once/week x3, anti-HER2 antibody 3 mg/kg ip twice/week x6", "value": "−0.34"}, {"measurement": "Log Growth Rate, Study No. 4", "setting": "MDA453 xenografts [4]", "value": "−0.030^c,d"}]}, {"substance": "anti-EGFR antibody: EGFR antagonist C225, developed by ImClone Systems, designed to block the EGF receptor", "values": [{"measurement": "Tumor Volume at 40 days", "setting": "A431 tumor; 40 days following tumor implantation", "value": 750, "unit": "mm^3"}, {"measurement": "Tumor Volume at 60 days", "setting": "A431 tumor; 60 days following tumor implantation", "value": 2500, "unit": "mm^3"}, {"measurement": "tumor volume as a function of time (FIG. 1), in words", "setting": "A431 tumor; treatment from day 6", "value": "still an increase in tumor size but to a lesser extent"}, {"measurement": "toxicity, in words", "setting": "[5]", "value": "not toxicity"}]}]}
